Here are results for one compound from patent US4269857A, “Control of plant-virus diseases” (Kureha Kagaku Kogyo Kabushiki Kaisha, priority 1978, dated 1981).

The subject of the test is tobacco mosaic virus (TMV). In words: Inhibition of local lesion formation by TMV, half-leaf method on kidney bean primary leaves. It is filed as in vivo, tobacco mosaic virus on kidney bean plants (variety: Otebo). The settings on record: read-out: Evaluation (rate of inhibition of lesion spot formation). The source says: The followings are the test results of the compounds of the present invention in the plant virus disease-controlling experiments. In the experiments one of the compounds of the present invention was formulated as in the above-mentioned Example 3 and after diluting the formulated composition with water to a predetermined concentration.
In this test, the inhibiting action of the compound of the present invention against the formation of local lesion due to the infection of tobacco mosaic virus (TMV) was examined by the half-leaf method using primary leaves of kedny been plants (variety: Otebo). TMV was inoculated on the primary leaf of kedney been plant, and just after the inoculation, the diluted liquid of the compound was painted on the half surface of the leaf and water was painted on the other half surface of the leaf. The concentration of the compounds of the present invention in the liquid was 500 ppm, and the inoculum was adjusted to form about 50 topical lesion spots on the half surface of the leaf painted with water (control). Ten leaves were usually used for the evaluation of one compound, and the rate of inhibition of lesion spot formation was derived from the following formula: [formula]
The thus obtained rates of inhibition were evaluated according to the following criteria: […]

SMILES strings stand for the structures.

As for `CCCNC[C@H](O)[C@@H](O)[C@H](O)[C@H](O)CO` [Compound 1], the inhibition (usually the relative decrease from the control value, in per cent) at 500 ppm was 70 to 90%.
